{
  "source": "paper PMC3500392",
  "about": "(ACS chemical biology, 2012)",
  "system": "GRK1",
  "details": "tubulin substrate",
  "note": "Counter-ions that a name gives are not always drawn.",
  "data": [
    {"smiles": "Fc1ccc([C@@H]2CCNC[C@H]2COc2ccc3c(c2)OCO3)cc1", "note": "[paroxetine, paroxetine hydrochloride]", "values": [
      {"measurement": "lower potency towards GRK1 compared to GRK2", "result": 60, "unit": "fold"}
    ]}
  ]
}
